Test results: patent publication US9694016B2 (Novartis AG, priority 2013, dated 2017)

Protein sequences, listed by entry. Tags and fused reporters are not part of them.
UniProt P04049, whole entry Y340E/Y341E: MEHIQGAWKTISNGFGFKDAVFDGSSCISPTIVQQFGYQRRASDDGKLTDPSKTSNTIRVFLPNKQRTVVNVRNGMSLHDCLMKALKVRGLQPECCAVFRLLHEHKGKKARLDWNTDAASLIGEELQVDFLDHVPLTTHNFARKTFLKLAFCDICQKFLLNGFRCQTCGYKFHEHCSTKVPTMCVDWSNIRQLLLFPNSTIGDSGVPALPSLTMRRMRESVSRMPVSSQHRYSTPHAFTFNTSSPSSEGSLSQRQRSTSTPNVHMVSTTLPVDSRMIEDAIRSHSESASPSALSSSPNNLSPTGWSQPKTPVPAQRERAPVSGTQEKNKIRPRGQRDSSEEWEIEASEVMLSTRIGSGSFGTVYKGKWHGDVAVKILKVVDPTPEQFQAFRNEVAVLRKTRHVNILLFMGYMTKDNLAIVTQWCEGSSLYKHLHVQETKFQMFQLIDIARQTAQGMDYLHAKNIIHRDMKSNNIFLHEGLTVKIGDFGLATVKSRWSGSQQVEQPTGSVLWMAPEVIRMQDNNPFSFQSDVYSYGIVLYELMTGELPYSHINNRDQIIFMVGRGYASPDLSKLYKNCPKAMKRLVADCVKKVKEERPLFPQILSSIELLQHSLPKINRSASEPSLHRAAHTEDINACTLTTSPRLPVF

Target: C-Raf FL (full-length C-Raf protein, Y340E and Y341E activating mutations) (Homo sapiens (Human), UniProt P04049, Y340E/Y341E)
Format: biochemical
Conditions: AlphaScreen, 60 min pre-incubation, reaction 1 hour at room temperature; read-out: c-Raf FL IC-50

Row | SMILES | IC50
1 | CCOc1cc(-c2cc(NC(=O)c3ccnc(C(F)F)c3)cnc2C)cc(N2CCOCC2)n1 [Example 1146, 2-(difluoromethyl)-N-(2′-ethoxy-2-methyl-6′-morpholino-[3,4′-bipyridin]-5-yl)isonicotinamide] | 0.32 nM
2 | CCOc1cc(-c2cc(NC(=O)c3ccnc(C(C)(C)C#N)c3)cnc2C)cc(N2CCOCC2)n1 [Example 1147, 2-(2-cyanopropan-2-yl)-N-(2′-ethoxy-2-methyl-6′-morpholino-[3,4′-bipyridin]-5-yl)isonicotinamide] | 1.52 nM
3 | CCOc1cc(-c2cc(NC(=O)c3ccnc(C(C)(C)O)c3)cnc2C)cc(N2CCOCC2)n1 [Example 1148, N-(2′-ethoxy-2-methyl-6′-morpholino-[3,4′-bipyridin]-5-yl)-2-(2-hydroxypropan-2-yl)isonicotinamide] | 2.29 nM
4 | CCOc1cc(-c2cc(NC(=O)c3ccnc(C4CC4)c3)cnc2C)cc(N2CCOCC2)n1 [Example 1149, 2-cyclopropyl-N-(2′-ethoxy-2-methyl-6′-morpholino-[3,4′-bipyridin]-5-yl)isonicotinamide] | 0.56 nM
5 | Cc1ccc(NC(=O)c2ccnc(C(C)(C)O)c2)cc1-c1cc(OC2CCOCC2)nc(N2CCOCC2)c1 [Example 1150, 2-(2-hydroxypropan-2-yl)-N-(4-methyl-3-(2-morpholino-6-((tetrahydro-2H-pyran-4-yl)oxy)pyridin-4-yl)phenyl)isonicotinamide] | 0.5 nM
6 | Cc1ccc(NC(=O)c2ccnc(C(F)F)c2)cc1-c1cc(OC2CCOCC2)nc(N2CCOCC2)c1 [Example 1151, 2-(difluoromethyl)-N-(4-methyl-3-(2-morpholino-6-((tetrahydro-2H-pyran-4-yl)oxy)pyridin-4-yl)phenyl)isonicotinamide] | 0.18 nM
7 | Cc1ccc(NC(=O)c2ccnc(C(C)(C)C#N)c2)cc1-c1cc(OC2CCOCC2)nc(N2CCOCC2)c1 [Example 1152, 2-(2-cyanopropan-2-yl)-N-(4-methyl-3-(2-morpholino-6-((tetrahydro-2H-pyran-4-yl)oxy)pyridin-4-yl)phenyl)isonicotinamide] | 0.33 nM
8 | Cc1ccc(NC(=O)c2cnnc(C(C)(C)C#N)c2)cc1-c1cc(OC2CCOCC2)nc(N2CCOCC2)c1 [Example 1153, 6-(2-cyanopropan-2-yl)-N-(4-methyl-3-(2-morpholino-6-((tetrahydro-2H-pyran-4-yl)oxy)pyridin-4-yl)phenyl)pyridazine-4-carboxamide] | 0.49 nM
9 | Cc1ccc(NC(=O)c2cnnc(C3CC3)c2)cc1-c1cc(OC2CCOCC2)nc(N2CCOCC2)c1 [Example 1154, 6-cyclopropyl-N-(4-methyl-3-(2-morpholino-6-((tetrahydro-2H-pyran-4-yl)oxy)pyridin-4-yl)phenyl)pyridazine-4-carboxamide] | 0.12 nM
10 | Cc1ccc(NC(=O)c2ccnc(C(F)(F)F)c2)cc1-c1cc(OCCO)nc(N2CCOCC2)c1 [Example 1156, N-(3-(2-(2-hydroxyethoxy)-6-morpholinopyridin-4-yl)-4-methylphenyl)-2-(trifluoromethyl)isonicotinamide] | 0.2 nM
11 | Cc1ccc(NC(=O)c2ccnc(C(C)(C)F)c2)cc1-c1cc(OCCO)nc(N2CCOCC2)c1 [Example 1158, 2-(2-fluoropropan-2-yl)-N-(3-(2-(2-hydroxyethoxy)-6-morpholinopyridin-4-yl)-4-methylphenyl)isonicotinamide] | 0.37 nM
12 | Cc1ccc(NC(=O)c2ccnc(C(C)(F)F)c2)cc1-c1cc(OCCO)nc(N2CCOCC2)c1 [Example 1159, 2-(1,1-difluoroethyl)-N-(3-(2-(2-hydroxyethoxy)-6-morpholinopyridin-4-yl)-4-methylphenyl)isonicotinamide] | 0.15 nM
13 | Cc1ccc(NC(=O)c2ccnc(C(F)F)c2)cc1-c1cc(OCCO)nc(N2CCOCC2)c1 [Example 1160, 2-(difluoromethyl)-N-(3-(2-(2-hydroxyethoxy)-6-morpholinopyridin-4-yl)-4-methylphenyl)isonicotinamide] | 0.16 nM
14 | Cc1ccc(NC(=O)c2ccnc(C(C)(C)C#N)c2)cc1-c1cc(OCCO)nc(N2CCOCC2)c1 [Example 1161, 2-(2-cyanopropan-2-yl)-N-(3-(2-(2-hydroxyethoxy)-6-morpholinopyridin-4-yl)-4-methylphenyl)isonicotinamide] | 0.3 nM
15 | Cc1ccc(NC(=O)c2cc(C(F)(F)F)ccn2)cc1-c1cc(OCCO)nc(N2CCOCC2)c1 [Example 1163, N-(3-(2-(2-hydroxyethoxy)-6-morpholinopyridin-4-yl)-4-methylphenyl)-4-(trifluoromethyl)picolinamide] | 0.2 nM
16 | Cc1ncc(NC(=O)c2ccnc(C(F)(F)F)c2)cc1-c1cc(C2COCCO2)nc(N2CCOCC2)c1 (stereo not drawn) [Example 1165, N-(2′-(1,4-dioxan-2-yl)-2-methyl-6′-morpholino-[3,4′-bipyridin]-5-yl)-2-(trifluoromethyl)isonicotinamide] | 0.72 nM
17 | Cc1ncc(NC(=O)c2ccnc(C(C)(F)F)c2)cc1-c1cc(C2COCCO2)nc(N2CCOCC2)c1 (stereo not drawn) [Example 1166, N-(2′-(1,4-dioxan-2-yl)-2-methyl-6′-morpholino-[3,4′-bipyridin]-5-yl)-2-(1,1-difluoroethyl)isonicotinamide] | 0.74 nM
18 | Cc1ncc(NC(=O)c2ccnc(C(C)(C)F)c2)cc1-c1cc(C2COCCO2)nc(N2CCOCC2)c1 (stereo not drawn) [Example 1167, N-(2′-(1,4-dioxan-2-yl)-2-methyl-6′-morpholino-[3,4′-bipyridin]-5-yl)-2-(2-fluoropropan-2-yl)isonicotinamide] | 2.12 nM
19 | CCC(F)(F)c1cc(C(=O)Nc2cnc(C)c(-c3cc(C4COCCO4)nc(N4CCOCC4)c3)c2)ccn1 (stereo not drawn) [Example 1168, N-(2′-(1,4-dioxan-2-yl)-2-methyl-6′-morpholino-[3,4′-bipyridin]-5-yl)-2-(1,1-difluoropropyl)isonicotinamide] | 1.21 nM
20 | Cc1ncc(NC(=O)c2ccnc(C3CC3)c2)cc1-c1cc(C2COCCO2)nc(N2CCOCC2)c1 (stereo not drawn) [Example 1169, N-(2′-(1,4-dioxan-2-yl)-2-methyl-6′-morpholino-[3,4′-bipyridin]-5-yl)-2-cyclopropylisonicotinamide] | 0.6 nM
21 | Cc1cc(=O)c(C(=O)Nc2cccc(C(F)(F)F)c2)cn1-c1ccnc(N2CCOCC2)c1 [Example 1175, 6-methyl-2′-morpholino-4-oxo-N-(3-(trifluoromethyl)phenyl)-4H-[1,4′-bipyridine]-3-carboxamide] | 20.4 nM
